Test results published in publication PMC11266573.

Target: DNMT3A1 UDR WT (human) (UniProt Q9Y6K1)
Assay: BLI
Conditions: none; WT Xenopus histones; BLI: 20 mM Tris-HCl pH 7.5, 50 mM NaCl, 1 mM DTT, 0.01% Tween-20, 30 C; EMSA: pH 7.5, 50 mM NaCl, 5% glycerol, 0.05% b-ME, 4 C

Q: With unmodified NCP, biotinylated 601 as the substance, how does the Kd read?
A: Its Kd is 197 nM.
